Results from PubChem BioAssay AID743171 (National Center for Advancing Translational Sciences (NCATS), 2013).
“And” between values parts separate entries of the source, which are not always exact repeats. Equal values may be shown once. This is a selection; strong and weak results do not stand in their true shares. Inconclusive results are not listed. The source made the active and inactive calls. Calls come from the whole dose curve; as a rule, active = well fitted inhibition curve with a large enough effect; inconclusive = small, poorly fitted or top-dose-only effect; inactive = flat fitted curve, though single readings scatter.

Amino acid sequences for entries named in this document (tags omitted). A change or cut given only in a name is not applied to a line headed by its entry.
UniProt P15428: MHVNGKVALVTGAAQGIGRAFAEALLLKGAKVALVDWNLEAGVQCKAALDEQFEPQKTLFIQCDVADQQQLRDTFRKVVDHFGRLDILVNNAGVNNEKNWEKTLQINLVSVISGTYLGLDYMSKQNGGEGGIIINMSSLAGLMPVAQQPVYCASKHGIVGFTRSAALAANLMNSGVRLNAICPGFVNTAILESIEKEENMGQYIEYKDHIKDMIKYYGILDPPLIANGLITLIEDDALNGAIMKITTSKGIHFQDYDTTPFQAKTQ

Target: 15-hydroxyprostaglandin dehydrogenase [NAD(+)] (Homo sapiens) (UniProt P15428)
Assay: Extended Characterization of HPGD Inhibitors: Activity in Primary Assay (HPGD)
Details: recombinant HPGD, NADH fluorescence, PGE2 substrate
Text: The central role of HPGD is to inactivate prostaglandins such as prostaglandin E2 (PGE2) or prostaglandin D2 (PGD2). These prostaglandins are involved in a number of processes, including inflammation, differentiation, and cellular signaling, which makes HPGD an important target for pharmacological intervention. Inhibition of 15-PGDH (HPGD) activity was screened by utilizing prostaglandin as an electron donor and NAD+ as an electron acceptor/cofactor. An increase in the fluorescence intensity due to conversion of NAD+ to NADH was used to measure the enzyme activity. All compounds were screened using a qHTS approach, where compounds are assayed using at least seven concentrations to generate concentration-response curves for every compound. […]
Three uL of enzyme (20 nM final concentration) were dispensed to 1536-well Greiner black solid bottom plates. […] The plates were immediately transferred to and read 4 times every 30 seconds on a ViewLux High-throughput CCD imager (Perkin-Elmer) using 340 nm excitation and 450 nm emission fluorescence protocol. The fluorescence intensity difference between the last and the first time points, normalized against controls, was used to compute reaction progress.

**Q.** `N#Cc1ccccc1CSc1nc2ncc(Br)cc2[nH]1` was tested. Which Potency did it give?
**A.** active: 121 nM and active: 96.1 nM and active: 48.2 nM
